Chains of the proteins cited; added tags and fusions are not shown.
UniProt Q07820, whole entry: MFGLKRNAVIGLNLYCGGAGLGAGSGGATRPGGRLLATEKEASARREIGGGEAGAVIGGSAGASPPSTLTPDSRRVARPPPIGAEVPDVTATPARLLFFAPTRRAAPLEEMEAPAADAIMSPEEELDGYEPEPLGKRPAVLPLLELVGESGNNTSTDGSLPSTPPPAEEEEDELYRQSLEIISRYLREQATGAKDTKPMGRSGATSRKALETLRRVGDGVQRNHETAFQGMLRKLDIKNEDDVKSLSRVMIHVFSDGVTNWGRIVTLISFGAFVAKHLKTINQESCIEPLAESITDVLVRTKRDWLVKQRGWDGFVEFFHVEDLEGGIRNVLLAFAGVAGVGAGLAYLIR

According to BindingDB's records for patent US10533010 (Vanderbilt University, 2020):

target: Induced myeloid leukemia cell differentiation protein Mcl-1 (Homo sapiens, UniProt Q07820); assay: Fluorescence Polarization Anisotropy Competition Assay
Description: Compound affinity was measured using a fluorescence polarization anisotropy competition assay. Anisotropy measurements were carried out in 384-well, black, flat-bottom plates (Greiner Bio-one, Monroe, N.C., USA).

With `Cc1cc(OCCCc2c3n(c4c(-c5c(C)nn(C)c5C)c(Cl)ccc24)CCCN(Cc2ccc(C(=O)O)o2)C3=O)cc(C)c1Cl` [US10533010, Example I-103] as the compound, how does the Ki read?
The Ki was less than 50 nM.

For `Cc1cc(OCCCc2c(C(=O)NCc3cccc(C(=O)O)c3)[nH]c3c(-c4c(C)nn(C)c4C)c(Cl)ccc23)cc(C)c1Cl` [US10533010, Example I-72], which Ki is on record?
The Ki was less than 50 nM.

With `Cc1cc(OCCCc2c3n(c4c(-c5c(C)nn(C)c5C)c(Cl)ccc24)CCCN(c2cc(C(=O)O)c4ccn(C)c4c2)C3=O)cc(C)c1Cl` [US10533010, Example I-239] as the compound, how does the Ki read?
The Ki was less than 50 nM.
